Data published in patent US20170038365A1, “SMALL MOLECULE INHIBITORS OF 8-OXOGUANINE DNA GLYCOSYLASE-1 (OGG1)” (OREGON HEALTH & SCIENCE UNIVERSITY, priority 2015, published 2017).

Amino acid sequences for entries named in this document (tags omitted).
UniProt O15527, whole entry: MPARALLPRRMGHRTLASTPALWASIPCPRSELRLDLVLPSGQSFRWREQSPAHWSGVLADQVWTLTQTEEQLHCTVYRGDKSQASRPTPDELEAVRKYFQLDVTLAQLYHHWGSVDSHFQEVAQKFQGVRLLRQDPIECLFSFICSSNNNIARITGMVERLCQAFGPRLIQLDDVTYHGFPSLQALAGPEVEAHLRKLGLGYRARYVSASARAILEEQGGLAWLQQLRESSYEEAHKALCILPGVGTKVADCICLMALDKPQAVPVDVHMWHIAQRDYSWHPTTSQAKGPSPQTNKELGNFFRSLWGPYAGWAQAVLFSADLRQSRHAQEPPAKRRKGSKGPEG

Molecular target: OGG1 (Homo sapiens, UniProt O15527)
Test: fluorescence-based OGG1 activity assay (TAMRA/BHQ2 8-oxo-Gua substrate)
Conditions: hydrazide forms vs parent acyl hydrazones

NNC(=O)c1sc2ccccc2c1Cl
OGG1 IC50 values compared with parent molecules: less than or equal to their parent molecules
